Test results reported in patent US20260042834A1, “ANTI-CORTICOTROPIN-RELEASING HORMONE ANTIBODIES AND POLYCYSTIC OVARY SYNDROME” (HBM ALPHA THERAPEUTICS, INC., priority 2022, published 2026).
Several values for one entry are separate records, joined by “and”; a condition that tells them apart may be missing. Equal entries are not always repeated.

Assays:
[1] = system: human CRHR2; test: CRH-induced luciferase reporter blocking assay, CHO-CRE-hCRHR2 cells; format: cell-based
Procedure, shortened: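 CHO-CRE reporter cells stably expressing mouse or human CRHR2 were treated with serially diluted antibodies (8 points, 1:4) plus CRH at final 5 nM (mCRHR2) or 0.1 nM (hCRHR2), 4-6 hours at 37° C. CRE-driven luciferase read by luminescence after 10 min with detection reagent.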

[2] = system: constitutively high plasma ACTH in Mrap1 KO mice; test: Mrap1 KO mice constitutively high ACTH model; format: in vivo, mouse; conditions: for plasma ACTH concentrations in Mrap1 KO mice: single dose 20 mg/kg
Protocol: 8-10 week old wildtype female C57BL/6 mice were obtained from Charles River Laboratories. Mrap1 KO mice were obtained from Queen Mary University of London, UK. SSR125543A, a small molecule CRHR1 antagonist, was obtained from Axon Medchem (Cat #Axon 1799). Mouse Corticosterone (55-Corms-E01) and adrenocorticotropic hormone (ACTH) ELISA kits (21-ACTHU-E01) were obtained from ALPCO, USA. All procedures were carried out in accordance with the Guide for the Care and Use of Laboratory Animals of the National Institutes of Health. Protocols were approved by Charles River Laboratories Institutional Animal Care and Use Committee (IACUC).
To generate Mrap1 KO mice, Mrap1−/− male mice were bred with Mrap1+/− female mice. Corticosterone hormone replacement was performed by administering 50 μg/ml in drinking water to breeder cages when female mice were pregnant and their pregnancies palpable (approximately embryonic day 10). Drinking water was changed weekly, and treatment was stopped at weaning. Mice were uniquely identified with ear tags at the time of tail clipping to match future genotype with each mouse. DNA was extracted from tail tissue and used to genotype mice.
[…] On day 2 or 3, 14 and 28, 200 μl of blood was collected in EDTA tubes from the submandibular vein of each mouse. Plasma was separated using a refrigerated centrifuge (4° C. at 500×g for 10 min) and snap-frozen in dry ice for subsequent ACTH ELISA measurement.

[3] = target: T1, biotinylated CRH (Homo sapiens, UniProt P06850); test: Affinity determination with Octet; format: binding
T1 construct: purchased GL Biochem 784751
T1 sequence (P06850 154-194): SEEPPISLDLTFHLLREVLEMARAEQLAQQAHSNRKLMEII
Procedure, shortened: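 Biolayer interferometry: 30 nM biotinylated CRH loaded onto streptavidin sensors, 2-fold antibody dilutions as analyte in PBS kinetics buffer. Association 180 s, dissociation 800 s, glycine pH 1.5 regeneration; double-referenced data fitted for affinity.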

[4] = system: mouse CRHR2; test: CRH-induced luciferase reporter blocking assay, CHO-CRE-mCRHR2 cells; format: cell-based
Procedure, shortened: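 CHO-CRE cells stably expressing mouse CRHR2 were seeded overnight, then given serially diluted antibodies (8 points, 1:4) together with CRH at 5 nM final. After 4–6 h at 37 °C, CRE-driven luciferase was read by Bio-Glo luminescence.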

[5] = CHO-CRE-hCRHR2 cells, 0.1 nM CRH

Molecule | IC50 [1, 5] [nM] | ACTH in Mrap1 KO mice ([2]; 5 mg/kg, post-dosing days 2 and 16) | plasma ACTH concentrations in Mrap1 KO mice, dose dependence ([2]; 20 mg/kg and 5 mg/kg, day 2 and day 16) | plasma ACTH concentrations in Mrap1 KO mice [2] | kdis [3] | IC50 ([4]; CHO-CRE-mCRHR2 cells, 5 nM CRH) | IC50 ([1]; Table 9, hCRHR2) [nM] | kon [3] [M⁻¹ s⁻¹] | IC50 ([4]; Table 9, mCrhr2) [nM]
PR005660: ΔPTM variant of Series 1 mAb PR004290; HCDR2 54EG55, LCDR1 36QS37 (antibody) heavy: EVQLVESGGVLVQPGGSLRLSCAASGFTFSSYWMTWVRQAPGKGLEWVANIKQEGSEKYYVDSVKGRFTISRDNAKNSLFLQMNSLRAEDTAVYYCARTLIFDYWGQGTLVTVSSASTKGPSVFPLAPSSKSTSGGTAALGCLVKDYFPEPVTVSWNSGALTSGVHTFPAVLQSSGLYSLSSVVTVPSSSLGTQTYICNVNHKPSNTKVDKKV[human IgG1 Fc not listed] light: DIVMTQSPLSLPVTPGEPASISCRSSQSLLHSTGYQSLEWYLQKPGQSPQLLIYLGSNRASGVPDRFSGSGSGTDFTLKISRVEAEDVGIYYCMQTLQTPITFGQGTRLEIKRTVAAPSVFIFPPSDEQLKSGTASVVCLLNNFYPREAKVQWKVDNALQSGNSQESVTEQDSKDSTYSLSSTLTLSKADYEKHKVYACEVTHQGLSSPVTKSFNRGEC | 79.3 | significantly reduced | reduced plasma ACTH concentrations in Mrap1 KO mice, in a dose dependent manner | significantly reduced | 5.59e-05 s⁻¹ and 5.12e-05 s⁻¹ | 12.9 nM |  |  | 
PR004290: Series 1 anti-CRH mAb from hybridoma clone 28b3 (CRH knockout H2L2 mice), recombinant with human IgG1 wildtype Fc (antibody) heavy: EVQLVESGGVLVQPGGSLRLSCAASGFTFSSYWMTWVRQAPGKGLEWVANIKQDGSEKYYVDSVKGRFTISRDNAKNSLFLQMNSLRAEDTAVYYCARTLIFDYWGQGTLVTVSSASTKGPSVFPLAPSSKSTSGGTAALGCLVKDYFPEPVTVSWNSGALTSGVHTFPAVLQSSGLYSLSSVVTVPSSSLGTQTYICNVNHKPSNTKVDKKV[human IgG1 Fc not listed] light: DIVMTQSPLSLPVTPGEPASISCRSSQSLLHSTGYNSLEWYLQKPGQSPQLLIYLGSNRASGVPDRFSGSGSGTDFTLKISRVEAEDVGIYYCMQTLQTPITFGQGTRLEIKRTVAAPSVFIFPPSDEQLKSGTASVVCLLNNFYPREAKVQWKVDNALQSGNSQESVTEQDSKDSTYSLSSTLTLSKADYEKHKVYACEVTHQGLSSPVTKSFNRGEC | 3.77 |  |  |  |  | 8.56 nM and 8.75 nM and 4.54 nM and 7 nM and 4.91 nM |  |  | 
PR302341-28: Series 10 humanized, PTM-removed anti-CRH mAb (Table 9), scaled up for in vivo studies (antibody) heavy: QVQLVQSGAEVKKPGASVKVSCKASGYTFTDYFMKWVRQAPGQGLEWMGVINPNQGDIFYNQKFKGRVTMTVDKSISTAYMELSRLRSDDTAVYYCARGTDRALFAYWGQGTLVTVSSASTKGPSVFPLAPSSKSTSGGTAALGCLVKDYFPEPVTVSWNSGALTSGVHTFPAVLQSSGLYSLSSVVTVPSSSLGTQTYICNVNHKPSNTKVDKKV[human IgG1 Fc not listed] light: DVVMTQSPLSLPVTLGQPASISCRSGQSIVHSDGNTYLEWYQQRPGQSPRLLIYKVSNRFSGVPDRFSGSGSGTDFTLKISRVEAEDLGVYYCFQGSHIPWTFGGGTKVEIKRTVAAPSVFIFPPSDEQLKSGTASVVCLLNNFYPREAKVQWKVDNALQSGNSQESVTEQDSKDSTYSLSSTLTLSKADYEKHKVYACEVTHQGLSSPVTKSFNRGEC |  |  |  | markedly reduced | <1e-07 s⁻¹ |  | ~2.27 | 2.63e+06 | 2.28
